Molecules are shown by their SMILES. Structures can show the parent of a compound that is named as a salt.

The record followed here is publication PMC6944527 (The American Journal of Clinical Nutrition, 2019).

In assay [1] the target is T1, ThTR-2 (SLC19A3) (Homo sapiens, UniProt Q9BZV2).
T1 sequence (Q9BZV2 1-496): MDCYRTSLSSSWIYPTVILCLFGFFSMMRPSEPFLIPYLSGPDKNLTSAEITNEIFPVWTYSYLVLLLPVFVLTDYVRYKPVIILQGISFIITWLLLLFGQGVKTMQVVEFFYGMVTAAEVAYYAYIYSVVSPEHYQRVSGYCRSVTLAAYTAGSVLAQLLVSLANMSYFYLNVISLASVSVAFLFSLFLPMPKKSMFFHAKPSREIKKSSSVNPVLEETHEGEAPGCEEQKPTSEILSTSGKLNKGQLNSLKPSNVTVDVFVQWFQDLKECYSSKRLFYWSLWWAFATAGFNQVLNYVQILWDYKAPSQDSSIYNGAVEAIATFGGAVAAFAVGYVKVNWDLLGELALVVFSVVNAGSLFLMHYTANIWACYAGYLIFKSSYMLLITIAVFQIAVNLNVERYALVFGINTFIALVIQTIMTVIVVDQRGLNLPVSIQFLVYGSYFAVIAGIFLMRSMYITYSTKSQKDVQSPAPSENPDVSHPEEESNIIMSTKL
As to the kind of experiment: Clinical relevance ratio. Conditions: based on current FDA guidelines; ratio >10.

Assay [2] addresses T1, ThTR-2 (SLC19A3).

In the case of `CCN(CCO)CCCC(C)Nc1ccnc2cc(Cl)ccc12` (centres unmarked) [Hydroxychloroquine sulfate], the DDI study recommended entry in assay [1] is “Yes”. Moreover, it took 17 ± 5.24 µM to reach half-maximal inhibition in assay [2] (IC50).
